Laboratory results from patent US20140045779A1, “COMPOUNDS CONTAINING AN ALICYCLIE STRUCTURE AND ANTI-TUMOR APPLICATION” (priority 2011, published 2014).
In brackets after ≈: the same amount, converted by molar mass.

Tests used:
[1] = test system: human pancreatic cancer cell line Panc-1; test: cells; details: PANC-1, 48 h, read-out: Growth Inhibition of cell line IC50, Panc-1
[2] = test system: human colorectal cancer cell line HT29; test: cells; details: HT-29, 48 h, read-out: Growth Inhibition of cell line IC50, HT29
[3] = test system: human lung cancer cell line NCI-H460; test: In vitro anti-cancer cell experiment (MTT), NCI-H460; details: NCI-H460, 48 h, read-out: Growth Inhibition of cell line IC50, NCI-H460

SMILES	IC50 [1] [µg/mL]	IC50 [2] [µg/mL]	IC50 [3] [µg/mL]
O=c1[nH]cc(F)c(=O)[nH]1 [Example 5-FU, 5-fluorouracil, reference compound]	3.33 (≈ 25.6 µM)		
O=C1C2CC3CC(C2)OC1C3 (stereo not shown) [Example 43, 2-oxaadamantan-4-one]	26.8 (≈ 176 µM)	54.1 (≈ 356 µM)	13.7 (≈ 89.7 µM)
OC12CC3CC(CC(C3)O1)C2 [Example 47, 2-oxaadamantan-1-ol]	17.6 (≈ 114 µM)	38.3 (≈ 249 µM)	17.2 (≈ 112 µM)
COc1cc(C23CN4CN(C2)CC(c2cc(OC)c(OC)c(OC)c2)(C4)C3=O)cc(OC)c1OC [Example 62, (1r,3r,5r,7r)-5,7-bis(3,4,5-trimethoxyphenyl)-1,3-diazaadamantan-6-one]	3.26 (≈ 6.73 µM)	3.62 (≈ 7.47 µM)	4.89 (≈ 10.1 µM)
CCCCCNC12CN3CN(CN(C3)C1)C2 [Example 68, (1s,3s,5s)-N-pentyl-1,3,5-triazaadamantan-7-amine]	3.4 (≈ 15.2 µM)	1.03 (≈ 4.59 µM)	3.38 (≈ 15.1 µM)
